Experiments:
CK1α = CK1α (Homo sapiens, UniProt P48729+Q96SW2); test: Western blot assay of substrate protein degradation in hPBMCs; settings: 24 hours treatment, compounds at 50 nM and 500 nM (concentration behind the class not stated)
IKZF2 = IKZF2 (Homo sapiens, UniProt Q96SW2+Q9UKS7); test: as above; settings: 24 hours treatment, compounds at 50 nM and 500 nM (concentration behind the class not stated)
IKZF3 = IKZF3 (Homo sapiens, UniProt Q96SW2+Q9UKT9); test: as above; settings: 24 hours treatment, compounds at 50 nM and 500 nM (concentration behind the class not stated)
IKZF1 = IKZF1 (Homo sapiens, UniProt Q13422+Q96SW2); test: as above; settings: 24 hours treatment, compounds at 50 nM and 500 nM (concentration behind the class not stated)
GSPT1 = GSPT1 (Homo sapiens, UniProt P15170+Q96SW2); test: as above; settings: 24 hours treatment, compounds at 50 nM and 500 nM (concentration behind the class not stated)
WEE1 = WEE1 (Homo sapiens, UniProt P30291+Q96SW2); test: as above; settings: 24 hours treatment, compounds at 50 nM and 500 nM (concentration behind the class not stated)
IL-2 = test: Inflammatory cytokine release from PBMCs induced by PHA (flow cytometry CBA); settings: PBMCs, PHA 1 µg/mL, 24 h
CRBN = CRBN (Homo sapiens, UniProt Q96SW2); test: CRBN binding affinity by HTRF (CEREBLON BINDING kit); settings: for Inhibition Rate at 0.5 µM (%) / Inhibition Rate at 2 µM (%): CRBN binding, HTRF; for Inhibition Rate at 0.5 µM (%): compound at 0.5 µM; for Inhibition Rate at 2 µM (%): compound at 2 µM
[1] = test system: Human myeloid monocytic leukemia cell (MV-4-11); test: Tumor cell proliferation inhibition (cell viability assay); settings: MV-4-11 cells, 96 hours
[2] = test system: Human multiple myeloma cell (MM.1S); test: as above; settings: MM.1S cells, 96 hours

By UniProt entry, the sequences of proteins in these tests, tags left out.
UniProt P48729, whole entry: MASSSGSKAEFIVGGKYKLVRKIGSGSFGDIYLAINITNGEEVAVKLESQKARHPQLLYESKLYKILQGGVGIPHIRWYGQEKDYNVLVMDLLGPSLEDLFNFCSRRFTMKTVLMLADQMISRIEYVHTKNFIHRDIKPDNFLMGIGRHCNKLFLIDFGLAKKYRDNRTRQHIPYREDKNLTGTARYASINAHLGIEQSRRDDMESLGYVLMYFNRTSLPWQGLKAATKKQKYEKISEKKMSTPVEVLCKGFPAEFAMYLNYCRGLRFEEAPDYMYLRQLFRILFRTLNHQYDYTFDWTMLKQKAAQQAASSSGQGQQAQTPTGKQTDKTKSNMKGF
UniProt Q96SW2, whole entry: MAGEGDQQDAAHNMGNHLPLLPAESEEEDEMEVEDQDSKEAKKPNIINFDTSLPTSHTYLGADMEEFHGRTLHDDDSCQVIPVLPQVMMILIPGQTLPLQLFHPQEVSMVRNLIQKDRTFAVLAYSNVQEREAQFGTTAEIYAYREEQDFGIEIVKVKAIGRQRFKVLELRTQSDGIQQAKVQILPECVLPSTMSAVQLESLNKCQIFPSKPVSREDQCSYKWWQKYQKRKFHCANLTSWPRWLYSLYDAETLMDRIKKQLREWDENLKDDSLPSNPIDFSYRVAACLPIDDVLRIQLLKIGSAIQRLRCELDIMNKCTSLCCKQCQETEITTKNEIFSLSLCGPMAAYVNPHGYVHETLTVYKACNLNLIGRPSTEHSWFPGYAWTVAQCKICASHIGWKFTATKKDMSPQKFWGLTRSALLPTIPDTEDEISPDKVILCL
UniProt Q9UKS7, whole entry: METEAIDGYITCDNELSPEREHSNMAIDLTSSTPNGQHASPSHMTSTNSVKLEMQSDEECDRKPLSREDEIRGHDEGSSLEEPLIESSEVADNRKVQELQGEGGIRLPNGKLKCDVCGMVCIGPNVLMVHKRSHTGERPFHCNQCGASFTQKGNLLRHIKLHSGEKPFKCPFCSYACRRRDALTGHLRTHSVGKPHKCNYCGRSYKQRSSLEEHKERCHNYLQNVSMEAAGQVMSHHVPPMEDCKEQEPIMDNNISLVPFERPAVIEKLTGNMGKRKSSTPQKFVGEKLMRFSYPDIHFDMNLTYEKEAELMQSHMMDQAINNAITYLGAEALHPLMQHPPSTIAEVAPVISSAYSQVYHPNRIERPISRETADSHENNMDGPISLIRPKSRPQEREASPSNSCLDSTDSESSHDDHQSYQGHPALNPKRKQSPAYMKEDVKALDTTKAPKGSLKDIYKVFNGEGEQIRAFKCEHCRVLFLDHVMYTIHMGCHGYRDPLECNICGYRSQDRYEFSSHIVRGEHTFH
UniProt Q9UKT9, whole entry: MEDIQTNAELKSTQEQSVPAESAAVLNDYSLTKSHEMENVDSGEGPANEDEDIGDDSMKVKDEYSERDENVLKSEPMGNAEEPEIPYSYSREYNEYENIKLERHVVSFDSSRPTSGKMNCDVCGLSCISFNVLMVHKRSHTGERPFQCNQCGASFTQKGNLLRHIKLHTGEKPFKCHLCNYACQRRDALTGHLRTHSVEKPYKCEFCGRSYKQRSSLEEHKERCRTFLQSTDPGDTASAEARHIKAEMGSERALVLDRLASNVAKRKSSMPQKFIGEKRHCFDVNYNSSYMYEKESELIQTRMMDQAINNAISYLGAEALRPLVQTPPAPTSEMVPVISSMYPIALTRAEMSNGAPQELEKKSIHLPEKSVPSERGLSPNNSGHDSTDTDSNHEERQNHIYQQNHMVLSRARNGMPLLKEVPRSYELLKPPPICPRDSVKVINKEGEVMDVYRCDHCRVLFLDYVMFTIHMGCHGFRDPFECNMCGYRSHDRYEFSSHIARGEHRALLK
UniProt Q13422, whole entry: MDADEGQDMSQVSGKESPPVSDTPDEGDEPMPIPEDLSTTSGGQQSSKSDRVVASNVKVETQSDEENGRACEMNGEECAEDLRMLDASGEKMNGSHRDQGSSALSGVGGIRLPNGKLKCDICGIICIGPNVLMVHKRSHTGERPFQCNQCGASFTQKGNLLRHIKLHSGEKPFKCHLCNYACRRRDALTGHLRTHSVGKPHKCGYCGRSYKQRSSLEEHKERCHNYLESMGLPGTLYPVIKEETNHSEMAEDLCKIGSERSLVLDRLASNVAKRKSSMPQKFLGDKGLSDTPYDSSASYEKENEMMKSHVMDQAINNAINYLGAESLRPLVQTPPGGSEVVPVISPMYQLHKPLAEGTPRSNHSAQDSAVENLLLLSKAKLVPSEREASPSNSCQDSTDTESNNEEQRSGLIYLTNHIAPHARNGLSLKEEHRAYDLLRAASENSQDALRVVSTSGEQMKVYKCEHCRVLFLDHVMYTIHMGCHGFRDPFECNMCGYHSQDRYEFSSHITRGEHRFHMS
UniProt P15170, whole entry: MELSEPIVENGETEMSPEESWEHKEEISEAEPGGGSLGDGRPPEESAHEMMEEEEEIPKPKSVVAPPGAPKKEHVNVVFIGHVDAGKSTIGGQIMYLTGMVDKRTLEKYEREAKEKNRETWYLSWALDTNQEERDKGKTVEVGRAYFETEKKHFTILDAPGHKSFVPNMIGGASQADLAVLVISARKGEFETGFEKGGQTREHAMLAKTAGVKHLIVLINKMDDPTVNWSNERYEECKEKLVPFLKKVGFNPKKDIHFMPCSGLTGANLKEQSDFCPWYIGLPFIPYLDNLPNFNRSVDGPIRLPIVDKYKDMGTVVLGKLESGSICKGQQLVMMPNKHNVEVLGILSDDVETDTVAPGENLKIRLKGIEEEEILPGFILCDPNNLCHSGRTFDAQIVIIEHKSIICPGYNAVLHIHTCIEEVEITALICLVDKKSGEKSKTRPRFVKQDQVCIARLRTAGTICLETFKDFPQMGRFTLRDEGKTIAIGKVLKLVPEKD
UniProt P30291, whole entry: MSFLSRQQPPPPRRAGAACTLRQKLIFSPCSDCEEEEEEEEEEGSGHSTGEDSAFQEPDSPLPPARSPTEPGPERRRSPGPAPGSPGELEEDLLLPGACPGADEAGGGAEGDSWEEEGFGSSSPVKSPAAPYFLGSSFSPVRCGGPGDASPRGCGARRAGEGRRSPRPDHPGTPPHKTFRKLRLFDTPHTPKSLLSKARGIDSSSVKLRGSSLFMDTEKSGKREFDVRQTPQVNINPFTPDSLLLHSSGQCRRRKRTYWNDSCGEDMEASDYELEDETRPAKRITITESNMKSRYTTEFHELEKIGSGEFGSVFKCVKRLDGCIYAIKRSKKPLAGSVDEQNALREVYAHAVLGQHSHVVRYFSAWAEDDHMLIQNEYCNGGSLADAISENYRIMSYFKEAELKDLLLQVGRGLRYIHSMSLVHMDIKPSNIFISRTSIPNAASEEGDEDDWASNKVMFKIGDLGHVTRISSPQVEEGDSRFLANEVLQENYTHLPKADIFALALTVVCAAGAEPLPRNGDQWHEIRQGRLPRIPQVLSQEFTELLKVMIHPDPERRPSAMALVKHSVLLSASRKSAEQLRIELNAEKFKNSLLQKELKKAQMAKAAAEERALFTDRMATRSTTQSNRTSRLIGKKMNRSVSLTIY
UniProt Q16531, whole entry partner: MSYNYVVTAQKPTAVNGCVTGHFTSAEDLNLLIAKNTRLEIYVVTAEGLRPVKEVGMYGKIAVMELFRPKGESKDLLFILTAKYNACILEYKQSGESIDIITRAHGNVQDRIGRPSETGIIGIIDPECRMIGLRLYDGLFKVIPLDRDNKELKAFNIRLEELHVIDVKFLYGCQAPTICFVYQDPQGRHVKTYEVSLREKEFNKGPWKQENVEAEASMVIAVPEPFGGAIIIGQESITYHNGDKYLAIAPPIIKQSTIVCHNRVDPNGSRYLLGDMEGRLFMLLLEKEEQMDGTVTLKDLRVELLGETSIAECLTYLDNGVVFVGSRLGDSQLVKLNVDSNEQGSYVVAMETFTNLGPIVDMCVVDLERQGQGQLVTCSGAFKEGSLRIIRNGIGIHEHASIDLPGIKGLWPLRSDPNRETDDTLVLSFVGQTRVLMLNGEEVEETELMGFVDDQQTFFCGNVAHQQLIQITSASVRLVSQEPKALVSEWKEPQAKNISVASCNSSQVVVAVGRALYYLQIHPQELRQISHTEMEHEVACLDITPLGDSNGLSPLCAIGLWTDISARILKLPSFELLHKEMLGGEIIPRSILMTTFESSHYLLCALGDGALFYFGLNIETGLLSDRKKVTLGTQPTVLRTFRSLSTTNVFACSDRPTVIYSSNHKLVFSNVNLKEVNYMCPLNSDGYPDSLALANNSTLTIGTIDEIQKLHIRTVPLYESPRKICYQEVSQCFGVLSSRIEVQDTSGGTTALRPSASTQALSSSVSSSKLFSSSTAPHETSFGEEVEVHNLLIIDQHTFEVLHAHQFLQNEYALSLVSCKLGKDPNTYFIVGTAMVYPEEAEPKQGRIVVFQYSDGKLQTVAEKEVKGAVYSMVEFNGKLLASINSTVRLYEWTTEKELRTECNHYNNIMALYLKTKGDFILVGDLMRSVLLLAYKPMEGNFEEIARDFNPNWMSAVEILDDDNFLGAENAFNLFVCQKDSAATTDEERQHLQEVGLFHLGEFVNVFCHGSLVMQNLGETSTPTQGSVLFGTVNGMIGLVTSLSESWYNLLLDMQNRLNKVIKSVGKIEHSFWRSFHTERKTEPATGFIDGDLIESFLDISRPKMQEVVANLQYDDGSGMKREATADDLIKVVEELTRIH

SMILES | IC50 (CRBN; read-out: HTRF IC50, human Cereblon WT GST-tagged protein, 3 hours at room temperature) [nM] | Inhibition Rate at 0.5 µM (%) (CRBN) | Inhibition Rate at 2 µM (%) (CRBN) | substrate protein remaining % (CK1a) (CK1α) | substrate protein remaining % (IKZF2) (IKZF2) | substrate protein remaining % (IKZF3) (IKZF3) | substrate protein remaining % (IKZF 1) (IKZF1) | substrate protein remaining % (GSPT1) (GSPT1) | substrate protein remaining % (WEE1) (WEE1) | Inhibition Rate (%) IL-2 (IL-2; 0.1 µM) | Inhibition Rate (%) IL-2 (IL-2; 1 µM) | Inhibition Rate at 10 nM (%) [1] | Inhibition Rate at 500 nM (%) [1] | Inhibition Rate at 10 nM (%) ([2]; 10 nM) | Inhibition Rate at 500 nM (%) ([2]; 500 nM)
O=C1CCC(N2Cc3cccc(C(=O)N4CCC(N5CCN(C(c6ccccc6)c6ccccc6)CC5)C(F)(F)C4)c3C2=O)C(=O)N1 (stereo not drawn) | – | – | – | – | – | – | – | – | – | IV9 (40% < IV9 ≤ 50%) | IV9 (40% < IV9 ≤ 50%) | – | – | – | –
O=C1CCC(N2Cc3ccc(CN4CCC(N5CCN(C(c6ccccc6)c6ccccc6)CC5)CC4)cc3C2=S)C(=O)N1 (stereo not drawn) | – | a3 (30% < a3 ≤ 40%) | a7 (70% < a7 ≤80%) | – | – | – | – | – | – | IV9 (40% < IV9 ≤ 50%) | IV9 (40% < IV9 ≤ 50%) | – | – | – | –
O=C1CCC(N2Cc3cc(CN4CCC(N5CCN(c6noc7cc(F)ccc67)CC5)CC4)ccc3C2=S)C(=O)N1 (stereo not drawn) | – | a4 (40% < a4 ≤ 53%) | a8 (80% < a8 ≤100%) | – | – | – | – | – | – | IV9 (40% < IV9 ≤ 50%) | IV7 (20% < IV7 ≤ 30%) | – | – | – | –
O=C1CCC(N2Cc3cccc(CN4CCC(N5CCN(C(c6ccccc6)c6ccccc6)CC5)C(F)(F)C4)c3C2=O)C(=O)N1 (stereo not drawn) | – | – | – | B (80%< substrate protein remaining %≤ 100%) | B (80%< substrate protein remaining %≤ 100%) | B (80%< substrate protein remaining %≤ 100%) | B (80%< substrate protein remaining %≤ 100%) | A (0% ≤ substrate protein remaining % ≤ 80%) | A (0% ≤ substrate protein remaining % ≤ 80%) | IV9 (40% < IV9 ≤ 50%) | IV9 (40% < IV9 ≤ 50%) | – | – | – | –
O=C1CCC(N2Cc3cccc(CN4CCC(N5CCN(c6noc7cc(F)ccc67)CC5)C(F)(F)C4)c3C2=O)C(=O)N1 (stereo not drawn) | – | a4 (40% < a4 ≤ 53%) | a8 (80% < a8 ≤100%) | – | – | – | – | – | – | IV10 (50% < IV 10 ≤ 60%) | IV9 (40% < IV9 ≤ 50%) | – | – | – | –
O=C1CCN(N2C(=O)c3ccc(CN4CCC(N5CCC(c6noc7cc(F)ccc67)CC5)C(F)(F)C4)cc3C2=O)C(=O)N1 (stereo not drawn) | – | – | – | B (80%< substrate protein remaining %≤ 100%) | A (0% ≤ substrate protein remaining % ≤ 80%) | B (80%< substrate protein remaining %≤ 100%) | A (0% ≤ substrate protein remaining % ≤ 80%) | B (80%< substrate protein remaining %≤ 100%) | A (0% ≤ substrate protein remaining % ≤ 80%) | IV9 (40% < IV9 ≤ 50%) | IV8 (30% < IV8 ≤ 40%) | – | – | – | –
O=C1CCN(N2C(=O)c3ccc(CN4CCC(N5CCN(C(c6ccccc6)c6ccccn6)CC5)C(F)(F)C4)cc3C2=O)C(=O)N1 (stereo not drawn) | – | – | – | B (80%< substrate protein remaining %≤ 100%) | B (80%< substrate protein remaining %≤ 100%) | B (80%< substrate protein remaining %≤ 100%) | B (80%< substrate protein remaining %≤ 100%) | B (80%< substrate protein remaining %≤ 100%) | A (0% ≤ substrate protein remaining % ≤ 80%) | IV9 (40% < IV9 ≤ 50%) | IV8 (30% < IV8 ≤ 40%) | – | – | – | –
O=C1CCN(N2C(=O)c3ccc(CN4CCC(N5CCN(C(c6ccccc6)c6ccccc6)CC5)C(F)(F)C4)cc3C2=O)C(=O)N1 (stereo not drawn) | – | – | – | – | – | – | – | – | – | IV11 (60% < IV11 ≤ 70%) | IV1 1 | – | – | – | –
O=C1CCC(N2Cc3c(ccc(CN4CCC(N5CCC(c6noc7cc(F)ccc67)CC5)C(F)(F)C4)c3F)C2=O)C(=O)N1 (stereo not drawn) | – | – | – | B (80%< substrate protein remaining %≤ 100%) | A (0% ≤ substrate protein remaining % ≤ 80%) | A (0% ≤ substrate protein remaining % ≤ 80%) | A (0% ≤ substrate protein remaining % ≤ 80%) | A (0% ≤ substrate protein remaining % ≤ 80%) | B (80%< substrate protein remaining %≤ 100%) | – | – | – | – | 1b9 (70% ≤ 1b9 < 80%) | 1b9 (70% ≤ 1b9 < 80%)

The next lines start with results.

IC50 (CRBN; read-out: HTRF IC50, human Cereblon WT GST-tagged protein, 3 hours at room temperature) [nM] | Inhibition Rate at 0.5 µM (%) (CRBN) | Inhibition Rate at 2 µM (%) (CRBN) | SMILES | substrate protein remaining % (CK1a) (CK1α) | substrate protein remaining % (IKZF2) (IKZF2) | substrate protein remaining % (IKZF3) (IKZF3) | substrate protein remaining % (IKZF 1) (IKZF1) | substrate protein remaining % (GSPT1) (GSPT1) | substrate protein remaining % (WEE1) (WEE1) | Inhibition Rate (%) IL-2 (IL-2; 0.1 µM) | Inhibition Rate (%) IL-2 (IL-2; 1 µM) | Inhibition Rate at 10 nM (%) [1] | Inhibition Rate at 500 nM (%) [1] | Inhibition Rate at 10 nM (%) ([2]; 10 nM) | Inhibition Rate at 500 nM (%) ([2]; 500 nM)
1000 to 1500 | – | – | CC1(C)CCC(CN2CCN(C3CCN(Cc4ccc5c(c4)CN(C4CCC(=O)NC4=O)C5=O)CC3(F)F)CC2)=C(c2ccc(Cl)cc2)C1 (stereo not drawn) | B (80%< substrate protein remaining %≤ 100%) | B (80%< substrate protein remaining %≤ 100%) | B (80%< substrate protein remaining %≤ 100%) | B (80%< substrate protein remaining %≤ 100%) | A (0% ≤ substrate protein remaining % ≤ 80%) | B (80%< substrate protein remaining %≤ 100%) | IV9 (40% < IV9 ≤ 50%) | IV7 (20% < IV7 ≤ 30%) | – | – | – | –
– | a6 (60% < a6 ≤ 70%) | a8 (80% < a8 ≤100%) | CC1(C)CCC(C(=O)N2CCN(C3CCN(C(=O)c4ccc5c(c4)CN(C4CCC(=O)NC4=O)C5=O)CC3(F)F)CC2)=C(c2ccc(Cl)cc2)C1 (stereo not drawn) | – | – | – | – | – | – | IV7 (20% < IV7 ≤ 30%) | IV1 0 | – | – | – | –
– | a5 (53% < a5 ≤ 60%) | a8 (80% < a8 ≤100%) | O=C1CCC(N2Cc3cc(CN4CCC(N5CCN(C(c6ccccc6)c6ccccn6)CC5)C(F)(F)C4)cc(F)c3C2=O)C(=O)N1 (stereo not drawn) | A (0% ≤ substrate protein remaining % ≤ 80%) | B (80%< substrate protein remaining %≤ 100%) | B (80%< substrate protein remaining %≤ 100%) | B (80%< substrate protein remaining %≤ 100%) | A (0% ≤ substrate protein remaining % ≤ 80%) | B (80%< substrate protein remaining %≤ 100%) | IV9 (40% < IV9 ≤ 50%) | – | 1a8 (60% ≤ 1a8 < 70%) | 1a10 (80% ≤ 1a10 < 100%) | – | –
– | a4 (40% < a4 ≤ 53%) | a6 (60% < a6 ≤ 70%) | O=C1CCC(N2Cc3cc(C(=O)N4CCC(N5CCN(C(c6ccccc6)c6ccccc6)CC5)CC4)c(F)cc3C2=O)C(=O)N1 (stereo not drawn) | B (80%< substrate protein remaining %≤ 100%) | B (80%< substrate protein remaining %≤ 100%) | B (80%< substrate protein remaining %≤ 100%) | B (80%< substrate protein remaining %≤ 100%) | A (0% ≤ substrate protein remaining % ≤ 80%) | B (80%< substrate protein remaining %≤ 100%) | – | – | 1a7 (50% ≤ 1a7 < 60%) | 1a10 (80% ≤ 1a10 < 100%) | – | –
– | a6 (60% < a6 ≤ 70%) | a8 (80% < a8 ≤100%) | O=C1CCC(N2Cc3c(C(=O)N4CCC(N5CCC(c6noc7cc(F)ccc67)CC5)C(F)(F)C4)cccc3C2=O)C(=O)N1 (stereo not drawn) | A (0% ≤ substrate protein remaining % ≤ 80%) | A (0% ≤ substrate protein remaining % ≤ 80%) | B (80%< substrate protein remaining %≤ 100%) | B (80%< substrate protein remaining %≤ 100%) | A (0% ≤ substrate protein remaining % ≤ 80%) | B (80%< substrate protein remaining %≤ 100%) | – | – | 1a8 (60% ≤ 1a8 < 70%) | 1a10 (80% ≤ 1a10 < 100%) | – | –
– | a3 (30% < a3 ≤ 40%) | a6 (60% < a6 ≤ 70%) | O=C1CCC(N2Cc3cccc(C(=O)N4CCC(N5CC=C(c6cccc(Cl)c6Cl)CC5)C(F)(F)C4)c3C2=O)C(=O)N1 (stereo not drawn) | A (0% ≤ substrate protein remaining % ≤ 80%) | A (0% ≤ substrate protein remaining % ≤ 80%) | A (0% ≤ substrate protein remaining % ≤ 80%) | A (0% ≤ substrate protein remaining % ≤ 80%) | A (0% ≤ substrate protein remaining % ≤ 80%) | A (0% ≤ substrate protein remaining % ≤ 80%) | – | – | 1a7 (50% ≤ 1a7 < 60%) | 1a9 (70% ≤ 1a9 < 80%) | – | –

Reference: patent EP4834897A1, “COMPOUNDS WITH TWO AZAHETEROCYCLES SUBSTITUTED ISOINDOLINONE SKELETON AND USES THEREOF” (dated 2026)
